In PubChem BioAssay (NCI):
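Test compounds were applied to cells in 96-well plates for 48 hours at 5 doses. At the GI50, growth is halved. TGI: concentration producing complete growth inhibition.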

What was measured:
Assay in all cases: NCI tumour cell line growth inhibition, 48 h
[1] = test system: SNB-75 CNS
[2] = test system: PC-3 prostate
[3] = test system: COLO 205 colon
[4] = test system: SF-539 CNS
[5] = test system: NCI-H522 lung
[6] = test system: SR leukemia
[7] = test system: M14 melanoma
[8] = test system: OVCAR-5 ovarian
[9] = test system: K-562 leukemia
[10] = test system: NCI/ADR-RES ovarian
[11] = test system: OVCAR-4 ovarian
[12] = test system: NCI-H322M lung
[13] = test system: CCRF-CEM leukemia
[14] = test system: SK-MEL-5 melanoma
[15] = test system: TK-10 renal
[16] = test system: UO-31 renal
[17] = test system: MDA-N
[18] = test system: LOX IMVI melanoma
[19] = test system: RPMI-8226 leukemia
[20] = test system: HT29 colon
[21] = test system: 786-0 renal
[22] = test system: NCI-H460 lung
[23] = test system: A498 renal
[24] = test system: NCI-H23 lung
[25] = test system: SF-268 CNS
[26] = test system: UACC-257 melanoma
[27] = test system: CAKI-1 renal
[28] = test system: SW-620 colon
[29] = test system: OVCAR-3 ovarian
[30] = test system: MALME-3M melanoma
[31] = test system: SK-MEL-2 melanoma
[32] = test system: U251 CNS
[33] = test system: A549 NSCLC
[34] = test system: NCI-H226 lung
[35] = test system: MCF7 breast
[36] = test system: MDA-MB-435
[37] = test system: ACHN renal
[38] = test system: MOLT-4 leukemia
[39] = test system: OVCAR-8 ovarian
[40] = test system: BT-549 breast
[41] = test system: MDA-MB-231 breast
[42] = test system: SK-OV-3 ovarian
[43] = test system: HOP-62 NSCLC
[44] = test system: HCC-2998 colon
[45] = test system: HL-60(TB) leukemia
[46] = test system: HCT-116 colon
[47] = test system: EKVX NSCLC
[48] = test system: HS 578T breast
[49] = test system: SN12C renal
[50] = test system: HOP-92 NSCLC
[51] = test system: SK-MEL-28 melanoma
[52] = test system: RXF 393 renal
[53] = test system: IGROV1 ovarian
[54] = test system: KM12 colon
[55] = test system: HCT-15 colon
[56] = test system: T-47D breast
[57] = test system: SNB-19 CNS
[58] = test system: DU-145 prostate
[59] = test system: SF-295 CNS

Q: For `CC1=CC2O[C@@H]3C[C@H]4OC(=O)CCCCC(C(C)O)OCC(O)C5(C)OC5C(=O)OCC2(C[C@H]1O)[C@]4(C)[C@@]31CO1` (some centres not stated), which GI50 [1] is on record?
A: 714 nM

Q: What about the TGI [1] of the same compound?
A: 2400 nM

Q: And the GI50 [2]?
A: 2390 nM

Q: What about the TGI [2] of the same compound?
A: 5990 nM

Q: What about the GI50 [3] of the same compound?
A: 952 nM

Q: And the TGI [3]?
A: 2740 nM

Q: What about the GI50 [4] of the same compound?
A: 391 nM

Q: What about the TGI [4] of the same compound?
A: 1150 nM

Q: What about the GI50 [5] of the same compound?
A: 276 nM

Q: And the TGI [5]?
A: 672 nM

Q: What about the TGI [6] of the same compound?
A: 654 nM

Q: And the GI50 [7]?
A: 1130 nM

Q: What about the TGI [7] of the same compound?
A: 2760 nM

Q: And the GI50 [8]?
A: 3220 nM

Q: And the TGI [8]?
A: 7370 nM

Q: What about the GI50 [9] of the same compound?
A: 531 nM

Q: What about the TGI [9] of the same compound?
A: 2580 nM

Q: And the GI50 [10]?
A: > 10000 nM

Q: What about the TGI [10] of the same compound?
A: > 10000 nM

Q: And the GI50 [11]?
A: 1900 nM

Q: What about the TGI [11] of the same compound?
A: 5760 nM

Q: And the GI50 [12]?
A: > 10000 nM

Q: And the TGI [12]?
A: > 10000 nM

Q: What about the GI50 [13] of the same compound?
A: 484 nM

Q: And the TGI [13]?
A: 3040 nM

Q: And the GI50 [14]?
A: 388 nM

Q: And the TGI [14]?
A: 1280 nM

Q: And the GI50 [15]?
A: 2850 nM

Q: And the TGI [15]?
A: 8930 nM

Q: And the GI50 [16]?
A: > 10000 nM

Q: And the TGI [16]?
A: > 10000 nM

Q: And the GI50 [17]?
A: 1100 nM

Q: And the TGI [17]?
A: 3360 nM

Q: And the GI50 [18]?
A: 198 nM

Q: What about the TGI [18] of the same compound?
A: 646 nM

Q: And the GI50 [19]?
A: 1590 nM

Q: What about the TGI [19] of the same compound?
A: 2510 nM

Q: What about the GI50 [20] of the same compound?
A: 2130 nM

Q: And the TGI [20]?
A: 5700 nM

Q: And the GI50 [21]?
A: 2010 nM

Q: What about the TGI [21] of the same compound?
A: 7470 nM

Q: What about the GI50 [22] of the same compound?
A: 1020 nM

Q: What about the TGI [22] of the same compound?
A: 3610 nM

Q: What about the GI50 [23] of the same compound?
A: 1090 nM

Q: And the TGI [23]?
A: 2710 nM

Q: And the GI50 [24]?
A: 1080 nM

Q: What about the TGI [24] of the same compound?
A: 3750 nM

Q: What about the GI50 [25] of the same compound?
A: 2440 nM

Q: What about the TGI [25] of the same compound?
A: 8410 nM

Q: And the GI50 [26]?
A: 1720 nM

Q: And the TGI [26]?
A: 4430 nM

Q: What about the GI50 [27] of the same compound?
A: 4810 nM

Q: And the TGI [27]?
A: 8410 nM

Q: What about the GI50 [28] of the same compound?
A: 2400 nM

Q: And the TGI [28]?
A: 8910 nM

Q: What about the GI50 [29] of the same compound?
A: 677 nM

Q: And the TGI [29]?
A: 2320 nM

Q: What about the GI50 [30] of the same compound?
A: 633 nM

Q: And the TGI [30]?
A: 2110 nM

Q: What about the GI50 [31] of the same compound?
A: 516 nM

Q: What about the TGI [31] of the same compound?
A: 2060 nM

Q: And the GI50 [32]?
A: 402 nM

Q: And the TGI [32]?
A: 2900 nM

Q: What about the GI50 [33] of the same compound?
A: 3270 nM

Q: And the TGI [33]?
A: 9390 nM

Q: And the GI50 [34]?
A: 1600 nM

Q: What about the TGI [34] of the same compound?
A: 4080 nM

Q: And the GI50 [35]?
A: 277 nM

Q: And the TGI [35]?
A: 1920 nM

Q: What about the GI50 [36] of the same compound?
A: 2150 nM

Q: What about the TGI [36] of the same compound?
A: 4590 nM

Q: And the GI50 [37]?
A: 3760 nM

Q: And the TGI [37]?
A: 7550 nM

Q: What about the GI50 [38] of the same compound?
A: 688 nM

Q: And the TGI [38]?
A: 2590 nM

Q: What about the GI50 [39] of the same compound?
A: 2830 nM

Q: And the TGI [39]?
A: 8300 nM

Q: What about the GI50 [40] of the same compound?
A: 2120 nM

Q: And the TGI [40]?
A: 5610 nM

Q: And the GI50 [41]?
A: 4870 nM

Q: What about the TGI [41] of the same compound?
A: > 10000 nM

Q: And the GI50 [42]?
A: 1890 nM

Q: What about the TGI [42] of the same compound?
A: 6730 nM

Q: What about the GI50 [43] of the same compound?
A: 1690 nM

Q: What about the TGI [43] of the same compound?
A: 6050 nM

Q: What about the GI50 [44] of the same compound?
A: 618 nM

Q: What about the TGI [44] of the same compound?
A: 2460 nM

Q: What about the GI50 [45] of the same compound?
A: 87.9 nM

Q: And the TGI [45]?
A: 2050 nM

Q: And the GI50 [46]?
A: 1020 nM

Q: And the TGI [46]?
A: 3350 nM

Q: And the GI50 [47]?
A: 5090 nM

Q: And the TGI [47]?
A: > 10000 nM

Q: What about the GI50 [48] of the same compound?
A: 1340 nM

Q: And the TGI [48]?
A: 3690 nM

Q: What about the GI50 [49] of the same compound?
A: 2170 nM

Q: And the TGI [49]?
A: 6400 nM

Q: What about the GI50 [50] of the same compound?
A: 484 nM

Q: And the TGI [50]?
A: 1890 nM

Q: What about the GI50 [51] of the same compound?
A: 513 nM

Q: And the TGI [51]?
A: 1660 nM

Q: What about the GI50 [52] of the same compound?
A: 447 nM

Q: And the TGI [52]?
A: 2010 nM

Q: And the GI50 [53]?
A: 562 nM

Q: What about the TGI [53] of the same compound?
A: 2820 nM

Q: And the GI50 [54]?
A: 1150 nM

Q: And the TGI [54]?
A: 3560 nM

Q: And the GI50 [55]?
A: 5180 nM

Q: What about the TGI [55] of the same compound?
A: > 10000 nM

Q: What about the GI50 [56] of the same compound?
A: 373 nM

Q: And the TGI [56]?
A: 3550 nM

Q: What about the GI50 [57] of the same compound?
A: 494 nM

Q: And the TGI [57]?
A: 3640 nM

Q: And the GI50 [58]?
A: 2390 nM

Q: What about the TGI [58] of the same compound?
A: 6170 nM

Q: And the GI50 [59]?
A: 2720 nM

Q: And the TGI [59]?
A: 6640 nM
